Values of other authors as cited in US20160000737A1, “TREATMENT OF PETS WITH SIRTUIN ACTIVATORS” (NUSIRT SCIENCES, INC., priority 2013, published 2016).

Conditions: directly excreted in the urine; cited from earlier work

CN(C)C(=N)N=C(N)N [Metformin]
metabolism/excretion: not metabolised
